According to patent US7632815B2, “Use of calmodulin kinase II inhibitors to treat myocardial dysfunction in structural heart disease” (Vanderbilt University, priority 2001, dated 2009):

System: CAN+ transgenic mice
Test: Echocardiography in calcineurin (CAN+) transgenic dilated cardiomyopathy model
Settings: dual transgenic AC3-I+/CAN+ compared to CAN+ mice

KKALHRQEAVDCL [AC3-I]
left ventricular (LV) dilation: reduced
LV fractional shortening (4-8 weeks of age): improved
